Several values for one entry are separate records, joined by “and”; a condition that tells them apart may be missing. Equal values may be shown once.
How the values were obtained:
5-HT1A [1] = biological target: T1, 5-HT1A (Rattus norvegicus, UniProt P19327); assay: Duration of action in the Fixed Responding Model; conditions: Control + 8-OH-DPAT 0.3 mg/kg sc (no antagonist); one control group under each test compound
5-HT1A [2] = biological target: T1, 5-HT1A; assay: Fixed Responding Model, in vivo 5-HT1A antagonism of 8-OH-DPAT-induced decrease in response rate; parameters: from tissue; host or cells: whole animal (rat), behavioural model; species or system rats; conditions: 8-OH-DPAT (0.3 mg/kg sc) alone; vehicle control 2.4 ± 0.5
Procedure: The ability of the compounds to function in vivo as 5-HT1A antagonists was assessed in rats using a Fixed Responding Model (D. Blackman, in “Operant Conditioning: An Experimental Analysis of Behavior”, J. Butcher, ed., Methuen and Co., Ltd., London). In this model rats are trained to respond (lever pressing) under a fixed-ratio 30 schedule of food presentation in order to receive a food pellet reinforcer. Administration of the 5-HT1A agonist 8-OH-DPAT reduces the control response rate (assessed by administration of vehicle placebo). The 5-HT1A antagonist activity of a test compound is determined by measuring its ability to antagonize this agonist-induced decrease in response rate. […] Thus, compounds of the present invention function as 5-HT1A antagonists in vivo.

The chains behind the UniProt entries cited, without tags or fusion partners.
UniProt P19327, whole entry: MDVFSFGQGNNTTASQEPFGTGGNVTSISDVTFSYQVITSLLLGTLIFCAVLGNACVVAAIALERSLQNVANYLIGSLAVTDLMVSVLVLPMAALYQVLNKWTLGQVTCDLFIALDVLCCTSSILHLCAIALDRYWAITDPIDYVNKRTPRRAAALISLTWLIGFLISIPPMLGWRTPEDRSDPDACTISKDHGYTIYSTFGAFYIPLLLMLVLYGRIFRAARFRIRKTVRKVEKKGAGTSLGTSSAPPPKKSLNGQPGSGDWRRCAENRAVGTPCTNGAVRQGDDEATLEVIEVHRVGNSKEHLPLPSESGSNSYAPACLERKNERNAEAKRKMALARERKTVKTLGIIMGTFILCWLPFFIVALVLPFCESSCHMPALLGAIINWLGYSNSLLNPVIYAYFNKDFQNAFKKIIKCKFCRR

CCCN(CCC)C1CCc2cccc(O)c2C1 (centres unmarked) [8-OH-DPAT, reference compound]
% Response Rate, 0.5 hour pretreatment (5-HT1A [1]): 21 ± 9% and 29 ± 6% and 23 ± 9% | Response Rate (5-HT1A [2]): 0.5 ± 0.2 responses/second
